Data reported in paper PMC11257449 (bioRxiv, 2024).
pKi: −log10 of the molar value.

By UniProt entry, the sequences of proteins in these tests, tags left out. Residues count along the entry.
UniProt P00811, 20-377: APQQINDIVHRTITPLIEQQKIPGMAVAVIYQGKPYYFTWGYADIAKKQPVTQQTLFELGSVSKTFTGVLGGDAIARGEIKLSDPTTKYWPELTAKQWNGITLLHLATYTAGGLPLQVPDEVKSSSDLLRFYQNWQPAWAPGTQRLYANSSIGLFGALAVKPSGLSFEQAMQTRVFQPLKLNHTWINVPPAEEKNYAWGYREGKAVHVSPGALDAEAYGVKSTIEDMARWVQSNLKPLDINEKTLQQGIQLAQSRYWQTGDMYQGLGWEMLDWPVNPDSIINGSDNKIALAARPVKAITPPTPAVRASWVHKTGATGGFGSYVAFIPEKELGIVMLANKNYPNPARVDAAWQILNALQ

Target: AmpC β-lactamase (Escherichia coli, UniProt P00811)
Assay type: biochemical
Details: read-out: affinity (Ki) for AmpC

SMILES: COC(=O)c1ccc(CNC(=O)c2c(C)o[nH]c2=O)cc1OC [Z6615146331]
- pKi: 4.44
